This experiment deals with T1, Human full-length diacylglycerol:acylCoA acyltransferase 1 (DGAT-1) (Homo sapiens, UniProt O75907).
T1 construct: Human full-length diacylglycerol:acylCoA acyltransferase 1 (DGAT-1) was expressed in Sf9 insect cells; made in house; host or cells: Sf9 insect cells (baculovirus)
T1 sequence (O75907 1-488): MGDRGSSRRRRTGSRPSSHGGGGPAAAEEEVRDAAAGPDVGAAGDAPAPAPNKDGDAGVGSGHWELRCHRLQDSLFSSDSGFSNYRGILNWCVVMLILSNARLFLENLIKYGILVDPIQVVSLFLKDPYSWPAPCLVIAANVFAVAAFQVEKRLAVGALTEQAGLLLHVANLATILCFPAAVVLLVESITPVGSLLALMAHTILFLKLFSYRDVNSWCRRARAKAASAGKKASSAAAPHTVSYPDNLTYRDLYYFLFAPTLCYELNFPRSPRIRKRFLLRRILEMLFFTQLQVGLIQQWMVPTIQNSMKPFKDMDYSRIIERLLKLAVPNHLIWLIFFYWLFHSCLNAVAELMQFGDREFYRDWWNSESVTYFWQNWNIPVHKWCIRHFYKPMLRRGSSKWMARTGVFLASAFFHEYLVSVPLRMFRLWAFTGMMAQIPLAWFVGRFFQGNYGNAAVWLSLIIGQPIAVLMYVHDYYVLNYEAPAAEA
Kind of experiment: In vitro assay for DGAT-1 inhibition ([14C]decanoylCoA, Sf9 membrane fraction). Format: biochemical. As for the experimental part:
Human full-length diacylglycerol:acylCoA acyltransferase 1 (DGAT-1) was expressed in Sf9 insect cells which are then lysed and a crude membrane fraction (105,000×g pellet) was prepared.
The cells were cultured as follows. Sf9 cells (20 L) were infected with 4 mL of DGAT1 Baculovirus Infected Insect Cells (BIIC) for 72 hours in a Wave Bioreactor System 20/50P (Wave Biotec/GE Healthcare).
Crude DGAT-1 microsomes were prepared as follows. Cell pellets were washed once with ice-cold Dulbecco's phosphate-buffered saline. Cells were collected in tabletop centrifuge (Beckman GS-6KR), 15 minutes, 2000×g, 4° C. Twenty (20) mL of ice-cold Microsome Buffer (MB) was added per 5 g of cell pellet. The suspension was passed through a microfluidizer 3 times (18K psi). The lysate was transferred to centrifuge tubes and centrifuged for 20 minutes at 5000×g (Beckman-Coulter, Inc. Allegra® 64R High-Speed Refrigerated Benchtop Centrifuge, F0650 rotor) at 4° C. The supernatant was transferred to Ultracentrifuge tubes and centrifuged at […] for 1 hr in a Beckman Ti-45 rotor, 4° C. The supernatant fluid was discarded. The pellet was resuspended in 70 mL of MB by sonication. The microsome concentration was determined using Bio-Rad Protein DC Protein Assay. The microsomes were filter sterilized with a 0.22 μm filter. The samples were portioned, flash frozen and stored at −80° C. […]

The values below come from patent US7718645B2, “Substituted bicyclolactam compounds” (Pfizer Inc., priority 2007, dated 2010).

Where two headings read alike, the source gives them in different places.

Broadly, the IC50 is the concentration that gives 50% inhibition. As for “(trans-4-{4-[(7R)-4-amino-7-methyl-5-oxo-7,8-dihydropyrimido[5,4-f][1,4]-oxazepin-6(5H)-yl]phenyl cyclohexyl)acetic acid [Example 14]”, the IC50 is, setting by setting: (apparent IC50, eight inhibitor concentrations 10 μM to 3 nM, read-out: IC50) 24.7 nM; (inhibition range where the assay was performed on a compound more than once, read-out: IC50 range) 20.2 to 36.7 nM.
